System: (V/A)80 elastin-like polypeptide fused to CVLL

geranylgeranyl transferase type I (GGTase-I) from Rattus norvegicus, heterodimer of alpha and beta subunits
cumulative yield of farnesylated protein relative to FTase: 2-3×the amount produced by the canonical enzyme (FTase)

Source: patent US20250066831
